This passage reports IC50 results from BindingDB's records for doi:10.1021/cb200305u (Harvard Medical School, 2012).

The chains behind the UniProt entries cited, without tags or fusion partners.
UniProt Q96GD4, whole entry: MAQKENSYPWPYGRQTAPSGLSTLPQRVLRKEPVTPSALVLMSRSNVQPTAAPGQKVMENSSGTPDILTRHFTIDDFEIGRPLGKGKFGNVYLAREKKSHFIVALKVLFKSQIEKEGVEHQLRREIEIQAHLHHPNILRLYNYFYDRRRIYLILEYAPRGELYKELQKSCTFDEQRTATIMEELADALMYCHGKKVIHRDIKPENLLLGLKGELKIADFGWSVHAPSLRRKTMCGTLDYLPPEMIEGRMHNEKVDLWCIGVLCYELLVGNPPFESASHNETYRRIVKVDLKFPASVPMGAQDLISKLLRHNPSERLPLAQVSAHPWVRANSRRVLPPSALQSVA

The target in the assay is Aurora kinase B (Homo sapiens, UniProt Q96GD4). The assay can be described thus: In Vitro Kinase Assay. An excerpt:
In vitro kinase assay of Aurora A, B, and C using Z-LYTE technology (Invitrogen) and ATP at Km apparent for each kinase.

The structures appear in SMILES notation.

`CN1C(=O)c2ccccc2N(C)c2nc(Nc3ccc(N4CCC(O)CC4)cc3)ncc21` [Benzo[e]pyrimido[5,4-b][1,4]diazepin-6(11H)-one, 1]: the IC50 (as a rule, the midpoint of a concentration-inhibition curve) stood at 18.4 nM. That is a double-digit nanomolar value.
